Target: Delta-type opioid receptor (Homo sapiens, UniProt P41143)
Experiment: ChEBML_146440

The chains behind the UniProt entries cited, without tags or fusion partners.
UniProt P41143, whole entry, looked up: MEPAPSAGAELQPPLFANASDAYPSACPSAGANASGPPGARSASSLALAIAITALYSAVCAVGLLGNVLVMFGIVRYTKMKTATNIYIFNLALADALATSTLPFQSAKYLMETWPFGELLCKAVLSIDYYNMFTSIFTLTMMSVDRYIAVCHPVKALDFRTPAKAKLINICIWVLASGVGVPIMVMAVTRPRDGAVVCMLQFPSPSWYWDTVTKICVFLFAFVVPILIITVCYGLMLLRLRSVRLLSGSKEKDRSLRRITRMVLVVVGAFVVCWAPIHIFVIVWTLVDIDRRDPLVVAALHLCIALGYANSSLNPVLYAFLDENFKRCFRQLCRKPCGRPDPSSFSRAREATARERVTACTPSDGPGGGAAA

Compound: CN(C(=O)Cc1ccc(Cl)c(Cl)c1)[C@@H]1CCCC[C@H]1N1CCCC1
- Ki: > 10 µM
